Measured affinities in a library of Ab-14 light chain variants

Data: MIT Lincoln Laboratory AlphaSeq set, Li et al. 2023, doi:10.1038/s41467-023-39022-2, as distributed in FLAb.

Binding partner: SARS-CoV-2 spike HR2 peptide, sequence PDVDLGDISGINAS.

Parent: Ab-14, a human scFv built as VH, the linker GGGGSGGGGSGGGGS, VL. Only the CDRs of the light chain vary.
VH: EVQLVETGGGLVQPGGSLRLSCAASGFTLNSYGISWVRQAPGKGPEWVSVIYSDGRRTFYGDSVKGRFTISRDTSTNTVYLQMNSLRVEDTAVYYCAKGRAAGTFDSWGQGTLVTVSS
VL: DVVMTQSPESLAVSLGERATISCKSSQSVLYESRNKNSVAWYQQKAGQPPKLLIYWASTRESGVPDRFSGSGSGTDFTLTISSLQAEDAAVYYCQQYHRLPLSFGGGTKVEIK

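Phage display of a naive human antibody library on the peptide gave the parent. These sequences belong to a second round, designed from the earlier measurements on random variants of the parent. Their group label is 14L_GP_Gen (GP: Gaussian process model; Gen: genetic algorithm; a sequence that several methods proposed may carry one label only). In AlphaSeq, yeast of one mating type display the scFv and yeast of the other type display the target. The frequency of each diploid, read from paired DNA barcodes, reflects how well the two displayed proteins bind. The ratio of observed to expected reads was calibrated, replicate by replicate, on BCL2-family standards whose Kd was known from biolayer interferometry. There are six technical replicates.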

Each variant is given by its three light chain CDRs, as the data file delimits them; those of the parent are KSSQSVLYESRNKNSVA, WASTRES, QQYHRLPLS.
Values are log10 of the apparent Kd in nM; lower means stronger binding.
A mean of the replicates is given; it leaves out those without a signal.
A pair that was not seen in that replicate is written "nd"; this usually means weak binding, but a binder can also be missed.
The authors' rule: three or more of the six replicates give a measured affinity, fewer mean a poor binder.

The variant KLSQSVLYESRNKNNVA, AASQRES, QQYHRLPLS gave -0.33, -0.11, -0.22, -0.01, -0.38, -0.23 (mean -0.21; controls 0 of 18).
The variant KFSQLWLYESRNKNSVA, NASTRES, QQYHRLPLS gave 0.42, 0.21, 0.02, 0.14, 0.28, 0.15 (mean 0.20; controls 1 of 18).
The variant KLSQSVLYESRNKNAVA, NASQRES, QQYHRLPLS gave 0.32, 0.33, 0.22, 0.08, 0.11, 0.29 (mean 0.23; controls 2 of 18).
The variant KVSQSWLYESRQKNSVA, NASQRES, QQYHRLPLS gave 0.46, 0.39, 0.49, 0.18, 0.66, 0.41 (mean 0.43; controls 2 of 18).
The variant KLSQSELYESRNKNSVA, SASTRLS, QQYHRLPLS gave 0.47, 0.02, 0.10, -0.03, 0.07, 0.38 (mean 0.17; controls 0 of 18).
The variant KVSQSHDYESRNKNSVA, NASTRES, QQYHRLPLS gave 0.09, -0.20, -0.12, -0.16, 0.02, -0.04 (mean -0.07; controls 0 of 18).
The variant KSSQSVLYESRNFNSVA, NASTRES, QQYHRLPLS gave 0.18, 0.24, 0.32, 0.24, 0.04, 0.08 (mean 0.18; controls 1 of 18).
The variant KLSQSDLYESRNKNSVA, QASTRMS, QQYHRLPLS gave 0.17, -0.04, 0.03, -0.12, -0.28, 0.13 (mean -0.02; controls 1 of 18).
The variant KLSQSVLYESRMKNNVA, SASTRES, QQYHRLPLS gave -0.05, 0.06, -0.10, -0.21, -0.14, 0.02 (mean -0.07; controls 2 of 18).
The variant KVSQSQLYESRNKWSVA, NASTRES, QQYHRLPLS gave 0.33, 0.52, 0.46, 0.42, 0.54, 0.59 (mean 0.48; controls 1 of 18).
The variant KFSQSVLYEDRNKNSVA, DASQRES, QQYHRLPLS gave -0.12, -0.27, -0.38, -0.43, -0.50, -0.11 (mean -0.30; controls 3 of 18).
The variant KLSQSDLYESRNKNSVA, SASTRES, QQYHRLPLS gave -0.07, -0.16, -0.26, -0.34, -0.36, 0.05 (mean -0.19; controls 2 of 18).
The variant KLSQSDLYESRNKNSVA, EASTRMS, QQYHRLPLS gave 0.19, -0.09, -0.09, -0.22, -0.06, -0.14 (mean -0.07; controls 5 of 18).
The variant KVSQSVLYESRNKWSVA, NASTRES, QQYHRLPLS gave 0.14, 0.16, 0.05, 0.14, -0.11, 0.15 (mean 0.09; controls 0 of 18).
The variant KLQQSVLYESRNKNSVA, NGSTRES, QQYHRLPLS gave 0.30, 0.05, 0.05, -0.07, 0.03, 0.24 (mean 0.10; controls 0 of 18).
The variant KLSQSHLYESRMKNSVA, NASTRMS, QQYHRLPLS gave -0.01, 0.03, -0.02, 0.06, -0.20, -0.09 (mean -0.04; controls 1 of 18).
The variant KVSQSHLYESRNKNSVA, EASTRES, QSYHRLPLS gave 0.05, -0.28, -0.20, -0.12, 0.01, 0.08 (mean -0.08; controls 1 of 18).
The variant KLSASELYESRNKNSVA, NASTRES, QQYHRLPLS gave 0.10, -0.01, -0.07, -0.43, -0.11, -0.04 (mean -0.09; controls 3 of 18).
The variant KFSQSFLYESRNKNSVA, GASTRES, QQYHRLPLS gave -0.15, -0.27, -0.47, -0.53, -0.33, -0.18 (mean -0.32; controls 0 of 18).
The variant KSSQSYLYESRNKNSVA, NASTRES, QQYHRLPLS gave -0.19, -0.42, -0.45, -0.58, -0.41, -0.11 (mean -0.36; controls 0 of 18).
The variant KLSQSDLYEDRNKNSVA, NASQRES, QQYHRLPLS gave 0.10, -0.12, -0.23, -0.12, -0.23, 0.06 (mean -0.09; controls 4 of 18).
The variant KLSQSVLMESRNKNSVA, NASTREE, QQYHRLPLS gave -0.13, -0.30, -0.25, -0.32, -0.10, -0.15 (mean -0.21; controls 3 of 18).
The variant KLVQSVLYESRNKNSVA, DASQRES, QQYHRLPLS gave -0.13, -0.24, -0.43, -0.37, -0.50, -0.28 (mean -0.32; controls 1 of 18).
The variant KLSQSDLYESRNKNSVA, QASTREQ, QQYHRLPLS gave -1.31, nd, -1.14, -1.59, -1.87, -0.74 (mean -1.33; controls 1 of 18).
The variant KLSQSCLYESRNKNSVA, NASTREQ, QQYHRLPLS gave -0.13, -0.49, -0.28, -0.66, -0.45, -0.18 (mean -0.36; controls 0 of 18).
The variant KLSQSVLYESRNWNSVA, EASTRES, QQYHRLPLS gave 0.43, -0.32, -0.39, -0.12, -0.37, -0.19 (mean -0.16; controls 0 of 18).
The variant KVMQSWLYESRNKNSVA, NASTRES, QQYHRLPLS gave -0.11, -0.13, -0.17, -0.26, -0.25, 0.13 (mean -0.13; controls 1 of 18).
The variant KVSQSFLYESRNKNNVA, EASTRES, QQYHRLPLS gave -0.37, -0.36, -0.38, -0.44, -0.63, -0.30 (mean -0.42; controls 2 of 18).
The variant KLSQSDLYESRNKNNVA, EASQRES, QQYHRLPLS gave -0.14, -0.33, -0.26, -0.53, -0.24, -0.48 (mean -0.33; controls 0 of 18).
The variant KFEQSNLYESRNKNSVA, NASQRES, QQYHRLPLS gave 0.20, 0.23, 0.00, -0.22, 0.18, 0.16 (mean 0.09; controls 1 of 18).
The variant KLSFSWLYESRNKNNVA, EASTRES, QQYHRLPLS gave 0.08, 0.20, -0.10, -0.13, -0.02, 0.02 (mean 0.01; controls 1 of 18).
The variant KFSQSVLYESRNKNAVA, EASTRES, QQYHRLPLS gave 0.53, 0.81, 0.79, 0.49, 0.70, 0.73 (mean 0.68; controls 2 of 18).
The variant KVSMSWLYESRNKNSVA, NASQRES, QQYHRLPLS gave -0.22, -0.12, -0.29, -0.36, -0.21, -0.01 (mean -0.20; controls 0 of 18).
The variant KLSQSQLYESRMKNNVA, NASTRES, QQYHRLPLS gave 0.33, 0.22, 0.33, 0.04, 0.16, 0.22 (mean 0.22; controls 0 of 18).
The variant KLSMSVLYESRNKNNVA, EASTRES, QQYHRLPLS gave -0.31, -0.26, -0.55, -0.71, -0.63, -0.63 (mean -0.52; controls 0 of 18).
The variant KVSQSMLYESRNKNNVA, DASQRES, QQYHRLPLS gave -0.11, -0.32, -0.54, -0.36, -0.41, -0.25 (mean -0.33; controls 0 of 18).
The variant KLSQSVLYESRNKNSVA, EASTRMM, QQYHRLPLS gave -0.16, -0.18, -0.32, -0.44, -0.52, -0.23 (mean -0.31; controls 1 of 18).
The variant KLQQSELYESRNKNSVA, NASTRMS, QQYHRLPLS gave -0.15, -0.30, -0.47, -0.53, -0.20, -0.17 (mean -0.30; controls 0 of 18).
The variant KMSQSDLYESRNKNSVA, GASTRES, QQYHRLPLS gave 0.04, 0.17, -0.04, 0.01, -0.07, 0.35 (mean 0.07; controls 3 of 18).
The variant KLSQSELYESRNKNSVA, NASTRES, QAYHRLPLS gave 0.10, 0.06, -0.14, -0.10, -0.02, 0.12 (mean 0.01; controls 0 of 18).
The variant KLQQSVDYESRNKNSVA, NASTRLS, QQYHRLPLS gave 0.24, 0.26, 0.22, 0.14, 0.15, 0.30 (mean 0.22; controls 0 of 18).
The variant KLSQSVEYESRNKNSVA, NASQREQ, QQYHRLPLS gave 0.17, -0.32, 0.44, -0.37, -0.61, 0.56 (mean -0.02; controls 0 of 18).

Values of this round are not directly comparable with the first-round values of the same sequences.
As a blank, each scFv also met three strains without target: over all light chain designs, 4% of these pairings were detected, typically at 2.64 and seldom below 1.59. The control count says in how many pairings with the empty strains this scFv gave a signal.
The parent sequence was in this pool as ten entries: three were never detected, three once, and four in most replicates, with averages from 0.34 to 2.37.